Test results taken from patent US6583180B2, “Glucocorticoid receptor modulators” (Abbott Laboratories, priority 2001, dated 2003).

molecular target: T1, Human glucocorticoid receptors (Homo sapiens, UniProt P04150); assay: Radioligand filter binding assay, displacement of 3[H]-dexamethasone from hGR; settings: read-out: GR Binding (% Inhibition at 1.7 μM)
T1 construct: made in house; host or cells: Sf9 insect cells, recombinant baculovirus (BAC-TO-BAC)
T1 sequence (P04150 1-777): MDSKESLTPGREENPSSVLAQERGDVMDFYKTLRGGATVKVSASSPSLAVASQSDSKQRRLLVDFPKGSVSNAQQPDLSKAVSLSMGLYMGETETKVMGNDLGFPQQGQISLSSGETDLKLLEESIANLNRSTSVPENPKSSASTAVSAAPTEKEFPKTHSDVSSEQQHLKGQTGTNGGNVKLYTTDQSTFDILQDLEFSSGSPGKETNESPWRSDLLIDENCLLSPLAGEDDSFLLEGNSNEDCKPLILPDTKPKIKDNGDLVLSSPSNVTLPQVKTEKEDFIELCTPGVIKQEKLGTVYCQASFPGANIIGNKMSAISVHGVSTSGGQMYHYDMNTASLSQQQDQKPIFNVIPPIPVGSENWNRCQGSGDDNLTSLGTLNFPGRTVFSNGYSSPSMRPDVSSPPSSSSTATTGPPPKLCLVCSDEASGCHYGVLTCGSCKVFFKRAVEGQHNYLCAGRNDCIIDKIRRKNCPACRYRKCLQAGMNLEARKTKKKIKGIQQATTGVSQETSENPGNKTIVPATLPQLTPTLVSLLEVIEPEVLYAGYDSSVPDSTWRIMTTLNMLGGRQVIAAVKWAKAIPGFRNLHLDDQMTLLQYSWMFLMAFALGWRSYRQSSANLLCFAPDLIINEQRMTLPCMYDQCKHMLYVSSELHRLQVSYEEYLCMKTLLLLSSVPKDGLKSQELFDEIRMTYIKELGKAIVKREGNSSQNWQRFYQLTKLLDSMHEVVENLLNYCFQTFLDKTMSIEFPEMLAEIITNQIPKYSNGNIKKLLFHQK

| SMILES | inhibition at 1.7 µM [%] |
| --- | --- |
| Cc1c(NS(C)(=O)=O)cccc1N(Cc1ccccc1)Cc1ccc(Oc2ccc(OCCCC(=O)NCCCC(=O)O)cc2)cc1 [Example 253, 4-{[4-(4-{4-[(benzyl{2-methyl-3-[(methylsulfonyl)amino]phenyl}amino)methyl]phenoxy}phenoxy)butanoyl]amino}butanoic acid] | 93.2 |
| Cc1c(NS(C)(=O)=O)cccc1N(Cc1ccccc1)Cc1ccc(Oc2ccc(OC[C@@H]3C[C@@H](O)CC(=O)O3)cc2)cc1 [Example 235, N-(3-(benzyl(4-(4-(((2S, 4R)-6-oxo-4hydroxytetrahydro-2H-pyran-2-yl)methoxy)phenoxy)benzyl)amino)-2-methylphenyl)methanesulfonamide] | 96.7 |
| Cc1c(NS(C)(=O)=O)cccc1N(Cc1ccccc1)Cc1ccc(Oc2cccc(OCCCC(=O)O)c2)cc1 [Example 116, 4-(3-{4-[(benzyl{2-methyl-3-[(methylsulfonyl)amino]phenyl}amino)methyl]phenoxy}phenoxy)butanoic acid] | 95.3 |
| Cc1c(NS(C)(=O)=O)cccc1N(Cc1ccccc1)Cc1ccc(Oc2ccc(CCCC(=O)NCC(=O)O)cc2)cc1 [Example 107, N-[4-(4-{4-[(benzyl{2-methyl-3-[(methylsulfonyl)amino]phenyl}amino)methyl]phenoxy}phenyl)butanoyl]glycine] | 95.9 |
| Cc1c(NS(C)(=O)=O)cccc1N(Cc1ccccc1)Cc1ccc(Oc2cccc(OCC(=O)O)c2)cc1 [Example 62, (3-{4-[(benzyl{2-methyl-3-[(methylsulfonyl)amino]phenyl}amino)methyl]phenoxy}phenoxy)acetic acid] | 89.1 |
| Cc1c(NS(C)(=O)=O)cccc1N(Cc1ccc(Oc2ccc(F)c(OCC(=O)O)c2)cc1)Cc1ccc(F)cc1F [Example 305, (5-(4-(((2,4-difluorobenzyl)(2-methyl-3-((methylsulfonyl)amino)phenyl)amino)methyl)phenoxy)-2-fluorophenoxy)acetic acid] | 96.6 |
| Cc1c(NS(C)(=O)=O)cccc1N(Cc1ccc(Oc2ccc(CCC(=O)O)cc2)cc1)Cc1ccc(F)cc1F [Example 50, N-{3-[(4-(4-(2-carboxyethyl)phenoxy)benzyl)(2,4-difluorobenzyl)amino]-2-methylphenyl}methanesulfonamide] | 92.9 |
